In PMC8503589 (The Journal of Biological Chemistry, 2021):

Legend:
Experiment in all cases: purified protein
Settings in all cases: 50 mM HEPES pH 7.7, 100 mM NaCl, 20 μM PLP, 1 mM DTT, 26 °C
purified protein [1] = substrate: N=C(N)NCCC[C@H](N)C(=O)O
purified protein [2] = substrate: NCCCC[C@H](N)C(=O)O
purified protein [3] = substrate: NCCC[C@H](N)C(=O)O

B1: T. thermosaccharolyticum O/LDC (aO/LDC) (Thermoanaerobacterium thermosaccharolyticum DSM 571) (protein)
chain: MEKLNHFETPLFDALMEYVNNNTIPFHVPGHKKGNGMAKKFFDFVGKNVLSMDVTVFEQVDSLHKPTGPIKKAQELAADAFGADATFFCIHGTSGAIQAMILSVMGENEKIIVPRNIHKSVTSGIILSGAIPVYMQPEVDKNVGVALNVTPETVEEALRNNPDAKAVLIINPTYYGVSADIVKIAEIVHDYGAILMVDEAHGPHLKFNEKLPISAMEAGADICAQSTHKIIGSMTQSSMLHVKSKRIDINRVKQVMSLLQTTSPSYILLASLDVARMQMVTEGKQLLDKTIELAEYARKEINNINGLYCFGNEIVGRDGAYDFDPTKITITAKGLGITGHELENILAKKYYIQPELADMYNALCVFSIGDTKENVDYLIRALREISETLYKDNVEMSKALDIPEIPEMVLSPRYAFECSNVALPLEESIGQISSEFLMAYPPGIPILCPGERITREIIEYVIEMKNAKLSIQGTEDPNVEYIKVVNDLQILNITA
Km (purified protein [1]): 660 ± 100 µM | kcat (purified protein [1]): 0.38 s⁻¹ | kcat/Km (purified protein [1]): 580 M⁻¹ s⁻¹ | Km (purified protein [2]): 500 ± 10 µM | kcat (purified protein [2]): 0.57 s⁻¹ | kcat/Km (purified protein [2]): 1100 M⁻¹ s⁻¹ | Km (purified protein [3]): 700 ± 60 µM | kcat (purified protein [3]): 0.87 s⁻¹ | kcat/Km (purified protein [3]): 1300 M⁻¹ s⁻¹
